Rango release inh: inhibition of RanGTP-driven Rango-importin beta dissociation | 340,000 compounds, 0.071% hits | AID 540253 | O95149+P62826 | Biochemical FRET Rango-importin beta, RanGTP-induced dissociation | Potency, µM (titrated, usually from 46.1 µM), for inactives: at the highest dose activity change, negative = inhibition; note: potency is the fitted concentration of half-maximal effect; % of control where 0% means no effect; nearly all actives have a fitted effect of over 45% in size
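FRET read at 45 min, room temperature: inhibitors block the CFP/YFP signal rise when RanGTP (0.6 uM Ran, 2 mM GTP, 0.2 uM RCC1) frees Rango (0.1 uM) from importin beta (0.25 uM). Pre-read after 5 min compound exposure flags interference.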
Giardia kill: Giardia lamblia killing; Giardia lamblia trophozoite viability; activity change, % at 7.66 µM, hits read low; 340,000 compounds, 0.15% hits; AID 540267; in the data active = activity change below about -80%; inconclusive = between about -30% and that limit;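 note: parasites exposed to compound for two days anaerobically before the ATP read; % is set by controls: 0 for no effect and ±100 for the full control effect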
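Compounds were tested on trophozoites seeded at 100 cells/well and held 48 hrs at 37 deg C anaerobically. An ATP-based luminescent kit measured the remaining live cells.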
a7 integrin act: activates integrin-mediated alleviation for muscular dystrophy | alpha7betagal myoblasts, beta-gal FDG fluorescence, 48 h | Potency, µM (highest dose often 38.3 µM), inactives show top-dose activation, most hits filed as activators | 350,000 compounds, 0.064% hits | AID 624291; active = well fitted activation curve with a large enough effect; inconclusive = small, poorly fitted or top-dose-only effect; inactive = no such curve, though single readings can be large or run the other way;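 note: potency is the fitted concentration of half-maximal effect; 100% = response of the positive control SU9516; nearly all actives have a fitted effect of over 60% in size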
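Alpha7betagal+/- myoblasts (passage 13) were plated 16-24 hr, then exposed to compounds (1:260 dilution of DMSO stock) for 48 hours at 37C. After MPER lysis, β-galactosidase reporter activity was read as FDG fluorescence (ex 480/em 540) after 30 minutes.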
uPA surface inh: inhibitors of cell surface uPA generation; cell surface uPA generation assay, qHTS; Potency, µM (highest dose often 38.3 µM), for the others: top-dose activity change, negative = inhibition, actives largely listed as inhibitors; 330,000 compounds, 0.31% hits; active = well fitted inhibition curve with a large enough effect; inconclusive = small, poorly fitted or top-dose-only effect; inactive = no such curve, though single readings can be large or run the other way; tested in mouse RAW 264.7 cells; note: potency is the fitted concentration of half-maximal effect; % is set by controls: 0 for no effect and ±100 for the full control effect; nearly all actives have a fitted effect of over 55% in size
Rango-impB inh: prevents formation of the Rango-importin beta complex; Q14974; Rango CFP/YFP FRET sensor + importin beta, 45 min; Potency, µM (titrated, usually from 92.2 µM), for the others: top-dose inhibition of complex formation; 340,000 compounds, 0.031% hits; AID 540263;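 note: potency is the fitted concentration of half-maximal effect; 0% = DMSO wells and 100% = buffer wells lacking importin beta; nearly all actives have a fitted effect of over 15% in size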
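Inhibition scored from the CFP 486 nm/YFP 530 nm FRET ratio 45 min after adding 0.125 microM importin beta to 50 nM Rango biosensor preincubated 5 min with compound (room temperature, PBS with DTT, Tween-20, BSA). No-importin wells as positive control.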
Active calls of the source: *; ? = inconclusive; · = no result given; [ ] = remark or other dose. Most compounds without a hit are left out; they make up all but 0.59% or so of the library. Unless noted, calls come from the whole dose curve.

#1 O=C(CN1CCCCCCC1)N/N=C/c1ccc([N+](=O)[O-])o1
#2 CCCCCCCC(=O)N/N=C/c1ccc([N+](=O)[O-])o1
#3 CC1(C(=O)N/N=C/c2ccc([N+](=O)[O-])o2)CC1(Br)Br (configuration not stated)
#4 Cc1ccc2ncnc(NCc3ccco3)c2c1
#5 O=C(CNC(=O)C1COc2ccccc2O1)N/N=C\c1ccc(Br)cc1 (configuration not stated)
#6 O=C(CC12CC3CC(CC(C3)C1)C2)N/N=C/c1ccc([N+](=O)[O-])o1
#7 O=C(Cc1ccc([N+](=O)[O-])cc1)N/N=C/c1ccc([N+](=O)[O-])o1
#8 Cc1noc(/C=C/c2cccnc2)c1[N+](=O)[O-]
#9 C=C1C=CS(=O)(=O)N(C(C)C(=O)OC)C1 (configuration not stated)
#10 O=[N+]([O-])C(/C=C(/Cl)[N+](=O)[O-])=C(N1CCCCC1)N1CCCCC1

| Assay by compound | 1 | 2 | 3 | 4 | 5 | 6 | 7 | 8 | 9 | 10 |
| --- | --- | --- | --- | --- | --- | --- | --- | --- | --- | --- |
| Rango release inh | -1% | 10% | 1% | · | 21% | 29% | -31% | -3% | · | 11% |
| uPA surface inh | -12% | -29% | -8% | · | 3% | -7% | ? | 7.9µM* | · | -8% |
| Rango-impB inh | 6% | ? | -3% | · | 0% | -1% | 1% | 0% | · | 1% |
| Giardia kill | ? | -88* | -90* | 0 | -6 | -94* | -89* | ? | 14 | -94* |
| a7 integrin act | -49% | -31% | -43% | · | -12% | -52% | -54% | ? | · | -41% |

Sorted by value in Rango-impB inh (falling): 3 of the compounds above
no.	molecule	Rango release inh	uPA surface inh	Rango-impB inh	a7 integrin act
5	O=C(CNC(=O)C1COc2ccccc2O1)N/N=C\c1ccc(Br)cc1 (configuration not stated)	21%	3%	0%	-12%
6	O=C(CC12CC3CC(CC(C3)C1)C2)N/N=C/c1ccc([N+](=O)[O-])o1	29%	-7%	-1%	-52%
3	CC1(C(=O)N/N=C/c2ccc([N+](=O)[O-])o2)CC1(Br)Br (configuration not stated)	1%	-8%	-3%	-43%

The listing continues:
#11 C/C=C/COC(=O)c1[nH]c2c(c1C)C(=O)CC(c1ccc(N(C)C)cc1)C2 (configuration not stated)
#12 CCOCCOC(=O)c1[nH]c2c(c1C)C(=O)CC(c1ccc(N(C)C)cc1)C2 (configuration not stated)
#13 CCC(C)OC(=O)c1[nH]c2c(c1C)C(=O)CC(c1ccc(N(C)C)cc1)C2 (configuration not stated)
#14 C[C@H](CO)N1C[C@H](C)[C@H](CN(C)C(=O)OCc2ccccc2)OCc2cnnn2CCCC1=O
#15 Cc1c(N2C(=O)/C(=C\c3ccc(N(C)C)cc3)N(C)C2=S)c(=O)n(-c2ccccc2)n1C
#16 CC1CCN(C(=O)Nc2ccc3nc(-c4ccco4)c(-c4ccco4)nc3c2)CC1
#17 Cc1nnc(NC(=O)CC(C)c2ccccc2)s1 (configuration not stated)
#18 CCC(Oc1ccccc1)C(=O)Nc1ncc([N+](=O)[O-])s1 (configuration not stated)
#19 CC(CC(=O)Nc1ncc([N+](=O)[O-])s1)c1ccccc1 (configuration not stated)
#20 COc1ccccc1S(=O)(=O)N1CCN(c2nc(-c3cccs3)nc3ccccc23)CC1

| Assay by compound | 11 | 12 | 13 | 14 | 15 | 16 | 17 | 18 | 19 | 20 |
| --- | --- | --- | --- | --- | --- | --- | --- | --- | --- | --- |
| Rango release inh | -5% | 0% | ? | · | 1% | · | -5% | -26% | -11% | · |
| uPA surface inh | ? | 13µM* | 10µM* | · | 1% | · | 2% | -3% | 1% | · |
| Rango-impB inh | 5% | 1% | -1% | · | 52µM* | · | 0% | -1% | 0% | · |
| Giardia kill | -25 | 35 | -19 | · | 27 | -16 | 1 | -88* | -86* | -11 |
| a7 integrin act | -20% | -23% | -30% | -5% | -15% | · | -46% | -26% | 8% | · |

#21 N#Cc1nc(-c2ccc(OCc3ccc(Cl)cc3)cc2)oc1N1CCCC1
#22 Cc1cc2[nH]c3c(c[n+](C)c4ccccc34)c2cc1C
#23 CC(=O)Nc1nc2cc3c(cc2s1)OCO3
#24 O=C(Nc1nc2cc3c(cc2s1)OCO3)C1=COCCO1
#25 CCCOc1ncnc2c1[nH]c1ccc(OC)cc12
#26 O=C(Nc1ccccc1)Oc1cccc(Br)c1
#27 COC(=O)c1ccccc1NC(=O)c1cc[n+]([O-])cc1
#28 CCc1ccc(Cn2ncc3c(C(=O)O)cc(C)nc32)cc1
#29 CCOC(=O)c1c(NC(=O)/C=C/C(=O)O)sc(C)c1-c1ccc(Cl)cc1
#30 CCOC(=O)c1c(NC(=O)Nc2ccc(Cl)cc2)sc(C)c1C

| Assay by compound | 21 | 22 | 23 | 24 | 25 | 26 | 27 | 28 | 29 | 30 |
| --- | --- | --- | --- | --- | --- | --- | --- | --- | --- | --- |
| Rango release inh | · | -9% | -10% | -1% | 3% | 28% | 12% | -7% | -10% | 0% |
| uPA surface inh | · | ? | -9% | 2µM* | 4.5µM* | -18% | -17% | 1% | 8.9µM* | 3% |
| Rango-impB inh | · | ? | 5% | -4% | -1% | 1% | -3% | 6% | 0% | -1% |
| Giardia kill | 17 | -84* | 5 | ? | -20 | -2 | 3 | -6 | 6 | 11 |
| a7 integrin act | · | -34% | 2% | -37% | -30% | -26% | 4µM* | 4% | 2% | -15% |

Sorted by molar mass (rising): 3 of the compounds above.
#7 O=C(Cc1ccc([N+](=O)[O-])cc1)N/N=C/c1ccc([N+](=O)[O-])o1
#30 CCOC(=O)c1c(NC(=O)Nc2ccc(Cl)cc2)sc(C)c1C
#16 CC1CCN(C(=O)Nc2ccc3nc(-c4ccco4)c(-c4ccco4)nc3c2)CC1

| Assay by compound | 7 | 30 | 16 |
| --- | --- | --- | --- |
| Rango release inh | -31% | 0% | · |
| uPA surface inh | ? | 3% | · |
| Rango-impB inh | 1% | -1% | · |
| Giardia kill | -89* | 11 | -16 |
| a7 integrin act | -54% | -15% | · |

Additional structures follow.
#31 Cc1ccc(N=C2NC(=O)/C(=C/c3cccn3C)S2)cc1
#32 C=CCN1c2ccccc2[C@]23C[C@@H](C(=O)OC)N(C(=O)c4cccs4)C2=NC(C(=O)OC)=C(C(=O)OC)[C@H]13
#33 C=CCN1c2ccccc2[C@]23C[C@@H](C(=O)OC)N(C(=O)c4ccc(Br)cc4)C2=NC(C(=O)OC)=C(C(=O)OC)[C@H]13
#34 COC(=O)C1=C(C(=O)OC)[C@@H]2N(Cc3ccccc3)c3ccccc3[C@@]23C[C@@H](C(=O)OC)N(C(=O)c2ccc(Br)cc2)C3=N1
#35 COC(=O)c1ccc(CNC(=O)COC(=O)/C=C/c2ccc(O)c(OC)c2)cc1
#36 COc1ccccc1C(=O)Nc1ccnn1C1CCN(Cc2cn(C)c3ccccc23)CC1
#37 CCN1C(=O)/C(=C\N(C(C)=O)c2ccccc2)OC1=S
#38 CC(=O)N(/C=C1\SC(=S)N(c2ccccc2)C1=O)c1ccccc1
#39 CCOc1cc(N2CCOCC2)c(OCC)cc1NC(=O)C(NC(=O)c1c(F)cccc1F)C(C)C (configuration not stated)
#40 COc1nccc(NCc2ccccc2)c1C#N

| Assay by compound | 31 | 32 | 33 | 34 | 35 | 36 | 37 | 38 | 39 | 40 |
| --- | --- | --- | --- | --- | --- | --- | --- | --- | --- | --- |
| Rango release inh | -12% | 25% | 1% | 1% | 18µM* | 5% | -5% | 16µM* | 19% | ? |
| uPA surface inh | 2.8µM* | 6.3µM* | 5.6µM* | ? | -5% | 10µM* | -20% | -11% | -5% | 2% |
| Rango-impB inh | ? | -4% | -1% | ? | ? | 1% | 0% | ? | 8% | 8% |
| Giardia kill | -16 | 18 | 12 | -8 | 7 | 6 | 9 | 14 | 21 | 1 |
| a7 integrin act | -11% | -4% | -13% | -46% | -7% | -72% | -1% | 23% | -1% | 10µM* |

#41 CCC1CC=CC2C1C(=O)N(Cc1ccccc1)C2c1ccc(C(F)(F)F)cc1 (configuration not stated)
#42 CCC(C)NC(=O)c1c(N)n(/N=C/c2cccnc2)c2nc3ccccc3nc12 (configuration not stated)
#43 CCC1OC2(C)OC(=N)C1(C#N)C(C#N)(C#N)C2c1ccccc1 (configuration not stated)
#44 CCCCNC(=O)Cn1c(SCc2ccccc2C)nc2ccncc21
#45 CC(C)c1ccc(/C=N/NC(=O)c2ccccc2Cl)cc1
#46 COC(=O)c1ccc(/C=N/NC(=O)c2ccccc2Cl)cc1
#47 Cc1ccc(C(=O)Nc2cccc(C(=O)NCc3ccccc3)c2)cc1
#48 Clc1ccc(-c2cn3c(n2)-c2ccccc2C3)cc1Cl

| Assay by compound | 41 | 42 | 43 | 44 | 45 | 46 | 47 | 48 |
| --- | --- | --- | --- | --- | --- | --- | --- | --- |
| Rango release inh | · | 3.3µM*[inhibitor] | 8.2µM* | · | ? | 23% | -6% | 2% |
| uPA surface inh | · | 3% | 0% | · | 3.2µM* | -5% | 10µM* | 10µM* |
| Rango-impB inh | · | ? | ? | · | 3% | 2% | 0% | 4% |
| Giardia kill | 27 | -7 | 10 | -8 | 28 | -3 | -10 | -9 |
| a7 integrin act | · | 14%[7.66 µM] | -1% | · | -41% | -4% | -13% | 8% |

Screening data from PubChem BioAssay.
